Experimental data reported in PubChem BioAssay (NCI).
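Growth conditions: 96-well plates. Treatment: test compound, 48 hours, 5 concentrations. Analysis: linear interpolation between bracketing concentrations; unreached endpoints set to highest concentration. TGI marks complete inhibition of growth.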

Assays:
Experiment in all cases: NCI tumour cell line growth inhibition, 48 h
[1] = system: NCI-H322M lung
[2] = system: IGROV1 ovarian
[3] = system: HOP-62 NSCLC
[4] = system: MDA-MB-435
[5] = system: HOP-92 NSCLC
[6] = system: UACC-257 melanoma
[7] = system: OVCAR-3 ovarian
[8] = system: SN12C renal
[9] = system: A549 NSCLC
[10] = system: MCF7 breast
[11] = system: DU-145 prostate
[12] = system: HL-60(TB) leukemia
[13] = system: RPMI-8226 leukemia
[14] = system: M14 melanoma
[15] = system: A498 renal
[16] = system: SNB-19 CNS
[17] = system: UO-31 renal
[18] = system: KM12 colon
[19] = system: HS 578T breast
[20] = system: MOLT-4 leukemia
[21] = system: NCI/ADR-RES ovarian
[22] = system: LOX IMVI melanoma
[23] = system: NCI-H522 lung
[24] = system: ACHN renal
[25] = system: NCI-H460 lung
[26] = system: EKVX NSCLC
[27] = system: 786-0 renal
[28] = system: HCC-2998 colon
[29] = system: SNB-75 CNS
[30] = system: NCI-H226 lung
[31] = system: T-47D breast
[32] = system: SR leukemia
[33] = system: SK-MEL-28 melanoma
[34] = system: HCT-15 colon
[35] = system: MDA-MB-231 breast
[36] = system: UACC-62 melanoma
[37] = system: HT29 colon
[38] = system: CAKI-1 renal
[39] = system: OVCAR-5 ovarian
[40] = system: SF-539 CNS
[41] = system: SK-MEL-5 melanoma
[42] = system: OVCAR-4 ovarian
[43] = system: OVCAR-8 ovarian
[44] = system: TK-10 renal
[45] = system: HCT-116 colon
[46] = system: BT-549 breast
[47] = system: U251 CNS
[48] = system: SK-OV-3 ovarian
[49] = system: SF-268 CNS
[50] = system: SW-620 colon
[51] = system: SF-295 CNS
[52] = system: PC-3 prostate
[53] = system: SK-MEL-2 melanoma
[54] = system: COLO 205 colon
[55] = system: MDA-N
[56] = system: RXF 393 renal

Measured: TGI

NCCC(N)CSP(=O)(O)O (stereo unspecified)
> 100 µM: [1] | [2] | [3] | [4] | [5] | [6] | [7] | [8] | [9] | [10] | [11] | [12] | [13] | [14] | [15] | [16] | [17] | [18] | [19] | [20] | [21] | [22] | [23] | [24] | [25] | [26] | [27] | [28] | [29] | [30] | [31] | [32] | [33] | [34] | [35] | [36] | [37] | [38] | [39] | [40] | [41] | [42] | [43] | [44] | [45] | [46] | [47] | [48] | [49] | [50] | [51] | [52] | [53] | [54] | [55] | [56]
